The whole screen tested about 340,000 compounds, of which about 4,500 (1.3%) were called active. All entries are inconclusive by the source's own rule. Clear calls are listed elsewhere. Calls come from the whole dose curve; as a rule, active = well fitted inhibition curve with a large enough effect; inconclusive = small, poorly fitted or top-dose-only effect, or another doubt; inactive = no such curve, though single readings can be large or run the other way.
Target: DNA polymerase beta (Homo sapiens) (UniProt P06746)
Test: qHTS Assay for Inhibitors of DNA Polymerase Beta
Conditions: Pol beta primer extension/strand displacement, fluorescence kinetic; activity change, negative = inhibition: at 114 µM (top of the series)
Source text: The base excision repair system in human cells is a target for therapeutic modulation of the response to irradiation treatment and DNA-damaging drugs. A key enzyme in this system is the bi-functional DNA polymerase known as DNA polymerase Beta (Pol Beta). The following is a homogeneous kinetic assay to study the primer extension and strand-displacement reaction catalyzed by pol beta.
A stepwise description of the 1536-well assay is shown in next Table. Three microliters of reagents (buffer in column 3 and 4 as negative control and 10 nM Pol beta in columns 1, 2, and 5-48) was dispensed into 1,536-well black solid-bottomed plate. Compounds (23 nL) were transferred via Kalypsys pin tool equipped with 1536-pin array (10 nL slotted pins, V&P Scientific, San Diego, CA). The plates were incubated for 15 min at room temperature, and 1 uL substrate (50 nM final concentration) were added to start the reaction and immediately read at 0 min read on Viewlux reader. The plate were further incubated for 10 min at room temperature, and then read on Viewlux again. Throughout the screen, reagent bottle and all liquid lines were chilled and made light-tight to minimize reagent degradation. All screening operations were performed on a fully integrated robotic system (Kalypsys, San Diego, CA) containing one RX-130 and two RX-90 anthropomorphic robotic arms (Staubli, Duncan, SC). Library plates were screened starting from the lowest and proceeding to the highest concentration, and a double-dipping step of the highest concentration was required to access higher concentrations of compounds. Vehicle-only plates, with DMSO being pin-transferred to the entire column 5-48 compound area, were inserted uniformly at the beginning and the end of each library in order to monitor for and record any shifts in the background, which can be affected by reagent dispensers or loss in enzyme activity overtime. Screening data were corrected, normalized, and concentration-effect relationships were derived by using publicly-available curve fitting algorithms developed in-house (http://ncgc.nih.gov/pub/openhts). A four parameter Hill equation was fitted to the concentration-response data by minimizing the residual error between the modeled and observed responses.
% is set by controls: 0 for no effect and ±100 for the full control effect; potency is the fitted concentration of half-maximal effect.

| SMILES | Potency | activity change, negative = inhibition |
| --- | --- | --- |
| CC(=O)Nc1ccc(Oc2c([N+](=O)[O-])cc([N+](=O)[O-])cc2[N+](=O)[O-])cc1 | inconclusive: 63.1 µM | – |
| O=[N+]([O-])c1cc([N+](=O)[O-])c(CCN2CCOCC2)c([N+](=O)[O-])c1 | inconclusive: 70.8 µM | – |
| Cc1ccc(NP(=O)(Oc2ccccc2F)Oc2ccccc2F)nc1 | inconclusive: 7.94 µM | – |
| C[N+]1=C2C=CC=CC=C2SC12C([N+](=O)[O-])=CC([N+](=O)[O-])=C[C-]2[N+](=O)[O-] (stereo not drawn) | – | inconclusive: -98.3% |
| O=[N+]([O-])c1ccc(Nc2ccc(Oc3ccc([N+](=O)[O-])cc3[N+](=O)[O-])cc2)c([N+](=O)[O-])c1 | inconclusive: 20 µM | – |
| O=P(Nc1ccccn1)(c1cccc2ccccc12)c1cccc2ccccc12 | inconclusive: 39.8 µM | – |
| CCOC(=O)Nc1ccc([As](=O)(O)O)c(O)c1 | inconclusive: 3.55 µM | – |
| Cc1c2c(nc3ccccc13)SC(C(Cl)Cl)C2 (stereo not drawn) | inconclusive: 50.1 µM | – |
